Experimental findings from PubChem BioAssay AID492972 (The Scripps Research Institute Molecular Screening Center, 2010) are described below.

Chains of the proteins cited; added tags and fusions are not shown. Lines headed by an entry give the natural chain unless they say otherwise; changes in a name come on top.
UniProt Q15102: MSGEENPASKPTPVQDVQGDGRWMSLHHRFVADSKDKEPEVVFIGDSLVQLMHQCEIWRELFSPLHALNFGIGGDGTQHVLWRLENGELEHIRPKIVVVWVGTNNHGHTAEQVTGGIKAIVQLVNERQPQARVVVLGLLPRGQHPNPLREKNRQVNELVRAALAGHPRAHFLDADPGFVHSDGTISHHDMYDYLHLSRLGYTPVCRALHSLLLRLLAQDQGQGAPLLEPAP

The list shows a part of the results, in another mix than the full data. Activity calls are given as the source filed them.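 How the source made its calls: active means inhibition above the screen-wide average of all tested compounds plus 3 SD (cut at about 25% in these data); inactive means the rest.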

As a reminder, the inhibition is the change of the read-out against control, counted positive when it falls.

This assay concerns the target Platelet-activating factor acetylhydrolase IB subunit alpha1 (Homo sapiens) (UniProt Q15102). The experiment in a line: inhibition of PAF acetylhydrolase 1B subunit 3 – biochemical, fluorescence polarization, human, primary screen (AID 492972).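 Further: 0% = enzyme with DMSO only and 100% = wells lacking PAFAH1B3 protein.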 To be noted: recombinant PAFAH1B3, FP-rhodamine probe, at 3.39 µM, active compounds read high.
With `COc1cc(I)ccc1[As](=O)(O)O`, the inhibition is inactive: 0.4%.
Turning to `COc1ccc2nc(NP(=O)(c3ccccc3)c3ccccc3)sc2c1`, the inhibition was inactive: 5.69%.
With `O=[N+]([O-])c1cc(Oc2ccc([N+](=O)[O-])cc2C(F)(F)F)cc([N+](=O)[O-])c1` the figure was inactive: 6.31%; with `COc1ccc(N/C(=N/P(=O)(N2CCOCC2)N2CCOCC2)N2CCOCC2)cc1`, inactive: -1%.
As for `COc1cc(C(=O)NCC2(N3CCOCC3)CCCCC2)ccc1OCC(C)C`, the figure is inactive: 12.9%; as for `O=[N+]([O-])c1ccc(-c2cc([N+](=O)[O-])c(O)c([N+](=O)[O-])c2)cc1`, inactive: 9.74%.
Regarding `C[As](=O)(O)c1cccc(C(=O)O)c1`, the inhibition was inactive: 4.7%.
As to `O=[As](O)(c1ccc(O)cc1)c1ccccc1O`, the inhibition was inactive: 6.25%.
As for `Cc1ccc(OP(=O)(Nc2ccc([N+](=O)[O-])cn2)Oc2ccc(C)cc2)cc1`, the inhibition is inactive: -6.21%.
Regarding `Cc1ccc2nc3c(c(C)c2c1)CC(C(Cl)Cl)S3` (stereo not drawn), the inhibition is inactive: 10.3%.
`ClCCSc1nnc(-c2cccnc2)o1`: the inhibition was inactive: 3.56%.
As for `CC(C)c1ccc(OP(=O)(Nc2ccccn2)Oc2ccccc2F)cc1` (stereo not drawn), the figure is inactive: 6.35%.
As for `COC(=O)C1(C)COP(=O)(N2CCCCCC2)OC1` (stereo not drawn), the figure is inactive: 5.71%; as for `O=[N+]([O-])c1cc([N+](=O)[O-])c(-c2ccn[nH]2)s1`, inactive: 3.26%.
As for `O=C(OC1CN2CCC1CC2)c1cccc2[nH]cnc12` (stereo not drawn), the figure is inactive: 2.56%.
For `CCN(CC)C(=S)SC(NC=O)C(Cl)(Cl)Cl` (stereo not drawn), the inhibition was inactive: 1.59%.
With `O=P(Nc1nc2ccc(Cl)cc2s1)(c1ccccc1)c1ccccc1` the figure was inactive: 4.9%; with `CCCC1OP(N)(=O)OCC1CC` (stereo not drawn), inactive: 3.74%.
As for `O=C(O)c1ccccc1[As](=O)(O)O`, the figure is inactive: 4.91%; as for `CC(=O)Nc1ccc([As](=O)(O)O)cc1`, inactive: 4.07%.
For `Cc1ccc(NP(=O)(Oc2ccccc2F)Oc2ccccc2F)nc1`, the inhibition was inactive: -0.69%.
As for `CN(C(=O)Cc1ccc(Cl)c(Cl)c1)[C@H]1CCCC[C@@H]1N1CCCC1`, the figure is inactive: 0.1%; as for `CCOP(=O)(Nc1ccccc1)OCC`, inactive: 15.3%.
Consider `Cc1cc(SC(NC(=O)c2ccc(F)cc2)C(Cl)(Cl)Cl)ncn1` (stereo not drawn), for which the inhibition is inactive: 7.19%.
Turning to `Nc1cccc2ccc([As](=O)(O)O)cc12`, the inhibition was inactive: 22.3%.
As for `CCN(N=Nc1nonc1N)c1nonc1N`, the figure is inactive: 2.92%.
As for `Cc1ccc(N/C(=N/P(=O)(N2CCOCC2)N2CCOCC2)N2CCOCC2)cc1`, the figure is inactive: 18.2%.
In the case of `CN(C(=O)Cc1ccc(Cl)c(Cl)c1)[C@H]1CCCC[C@H]1N1CCCC1`, the inhibition was inactive: 1.17%.
